Measurements taken from US20040209315A1, “Methods to identify agents that increase or decrease UBP43 activity and methods for use of such agents” (priority 2003, published 2004).

What was measured:
Assay type in all cases: cell-based, mice
[1] = system: UBP43± and UBP43−/− bone marrow cells; test: Liquid bone marrow cell culture, Trypan blue dye exclusion assay; conditions: 100 units/ml IFNβ, 48 hours
Description: (§1) (a) Bone marrow cells isolated from UBP43+/+ and UBP43−/− mice were cultured in vitro in the presence or the absence of INFβ (100 units/ml) for 48 hours. TUNEL assay was performed to study the percentage of apoptosis cells. (b) 48 hours after UBP43−/− bone marrow cells were infected with UBP43-MigR1, they were cultured in the presence or the absence of IFNβ (100 units/ml) for 48 hours. The cells (15% EGFR+ and 85% EGFR−) were stained with Annexing V-PE and 7-AAD and analyzed by flow cytometry. (c) Bone marrow cells from UBP43± and UBP43−/− mice were cultured in the absence or presence of 10 ng/ml IFγ, 10 ng/ml TNFα, and 100 units/ml IFNβ for 48 hours. Cells were then subjected to Trypan blue dye exclusion assay. Each data point represents the mean of three independent experiments. Error bar represents standard deviation about the mean.
In vitro bone marrow cell culture. The colony forming unit (CFU) assay was performed as described previously in the presence of the indicated concentration of IFNβ (Calbiochem) (Rhoades, Hetherington, Harakawa, Yergeau, Zhou, Liu, Little, Tenen, and Zhang, 2000). Liquid culture of bone marrow cells was performed in RPMI 1640 with 10% fetal bovine serum, 10 ng/ml IL-3 (peprotech), 10 ng/ml IL-6 (Peprotech), and 100 ng/ml SCF (Peprotech) in the presence or absence of 100 unit/ml IFNβ, 10 ng/ml IFNγ. (Peprotech), or 10 ng/ml TNFα (Calbiochem). […]

[2] = system: UBP43+/+ and UBP43−/− bone marrow cells; test: In vitro bone marrow cell colony forming unit (CFU) assay
Excerpt: (a) Hematopoietic cells transplanted from UBP43−/− mice to UBP43+/+ congenic strain mice are hypersensitive to poly(I—C) injection. Bone marrow cells (CD45.2+) from individual UBP43+/+ and UBP43−/− mice (n=4 for each group) were isolated and transplanted to lethally irradiated congenic strain mice (CD45.2−). Six months after the transplantation, flow cytometric analysis was done to determine the relative amount of peripheral blood cells contributed from the donor or recipient mice based on CD45-2 immunostaining before and after poly(I—C) injection (48 h). Flow cytometric analysis results from one representative mouse transplanted with UBP43+/+ or UBP43−/− bone marrow are presented. (b) UBP43−/− bone marrow cells are hypersensitive to IFNβ treatment. Bone marrow cells from UBP43+/+ and UBP43−/− mice were cultured at 2×10^4 cells/ml in CFU assay medium in the presence of various concentrations of IFNβ. Total colony number was counted after 12 days of culture. Results of a single representative experiment of two independent experiments are shown. Data points represent mean (±SD) colony growth derived from colony counts in three replicate plates for each mouse with two mice in each group. (c) Increased level of ISG15 conjugation in UBP43−/− bone marrow cells. Bone marrow cells were either left untreated or stimulated with 100 unit/ml IFNβ for 24 hours. Total proteins (15 μg) were resolved on 6-18% gradient SDS-PAGE and immunoblotted with anti-mouse ISG15 antibodies (Abs).
In vitro bone marrow cell culture. The colony forming unit (CFU) assay was performed as described previously in the presence of the indicated concentration of IFNβ (Calbiochem) (Rhoades, Hetherington, Harakawa, Yergeau, Zhou, Liu, Little, Tenen, and Zhang, 2000). Liquid culture of bone marrow cells was performed in RPMI 1640 with 10% fetal bovine serum, 10 ng/ml IL-3 (peprotech), 10 ng/ml IL-6 (Peprotech), and 100 ng/ml SCF (Peprotech) in the presence or absence of 100 unit/ml IFNβ, 10 ng/ml IFNγ. (Peprotech), or 10 ng/ml TNFα (Calbiochem).
Besides activating type I IFN production, poly(I—C) also activates other signaling pathways related to viral infection (Kaufinan, Proc. Natl. Acad. Sci., 96: 11693 (1999)). […] The CFU assay is commonly used to study defects of bone marrow cells in response to various cytokines and growth factors. Type I IFN is known to suppress bone marrow cell proliferation and colony formation (Broxmeyer et al., J. Immunol., 131: 1300 (1983)). […] Such a difference in colony formation indicated an abnormal sensitivity of UBP43 deficient cells to IFNβ. […] Furthermore, consistent with UBP43 enzymatic specificity, a higher level of protein ISGylation is detected in UBP43−/− bone marrow cells relative to UBP43+/+ bone marrow cells (FIG. 2c).

[3] = system: ISGF3 complex in UBP43+/+ and UBP43−/− bone marrow cells; test: Gel shift assay of ISGF3 DNA binding
Description: (a) ISFG3-complex formation in UBP43 deficient cells upon IFNβ stimulation. UBP43+/+ and UBP43−/− bone marrow cells were either left untreated or stimulated for the time indicated. Total protein extracts (30 μg) were used in the gel shift assays with ^32P-labeled double stranded oligonucleotide that contains an ISGF3 binding site. (b) UBP43+/+ and UBP43−/− bone marrow cells were either left untreated or stimulated with 100 unit/ml IFNβ as described above. Total proteins (15 μg) were resolved on 7% SDS-PAGE and immunoblotted with anti-phospho-Stat1 (Tyr701) Abs. Blots were stripped and reprobed with anti-Stat1 Abs to assure equal loading. (c) Induction of ISGs in UBP43+/+ and UBP43−/− bone marrow cells. Northern blot analysis of ISG15, 2′-5′OAS and IRF7 gene expression was performed on total RNA isolated from UBP43+/+ and UBP43−/− bone marrow cells treated with 100 unit/ml of IFNβ for the time indicated.
Gel shift assay. Assays were performed as previously described (Malakhova et al., J. Biol. Chem., 277: 14703 (2002). Double stranded oligonucleotide from the ISG15 promoter that contains an ISGF3 binding site was used in the assay (Fu et al., Proc. Natl. Acad. Sci., 87: 8555 (1990).
JAK-STAT signaling is extensively activated in UBP43-null cells upon IFN stimulation. The molecular basis for the action of IFN has not been understood despite tremendous past efforts. […]

[4] = system: UBP43+/+ and UBP43−/− bone marrow cells; test: TUNEL apoptosis assay on liquid bone marrow culture; conditions: 100 units/ml IFNβ, 48 hours
Description: as §1
In vitro bone marrow cell culture. The colony forming unit (CFU) assay was performed as described previously in the presence of the indicated concentration of IFNβ (Calbiochem) (Rhoades, Hetherington, Harakawa, Yergeau, Zhou, Liu, Little, Tenen, and Zhang, 2000). […]
Apoptosis assay. […] A total of 200 cells were counted to determine the percentage of apoptotic cells. […]

Substance: IFNβ: type I interferon (Calbiochem)
- apoptosis in UBP43−/− cells [1]: substantial increase
- reduction in colony formation ([2]; UBP43+/+ bone marrow cells, 1000 units/ml IFNβ): 40%
- reduction in colony number ([2]; UBP43+/+ cells, similar CFU assays (50 units/ml IFNβ)): < 10%
- reduction of bone marrow colony numbers ([2]; UBP43−/− bone marrow cells, 50 units/ml IFNβ): > 80%
- colony formation ([2]; UBP43−/− bone marrow cells, 1000 units/ml IFNβ): formed no colonies at all
- time of stimulation by which ISGF3 DNA binding became undetectable ([3]; UBP43+/+ cells, IFNβ stimulation): ≤ 12 h
- ISGF3 DNA binding at 48 hours ([3]; UBP43−/− cells, IFNβ treated): still detectable
- percentage of apoptotic cells (TUNEL) ([4]; UBP43+/+ bone marrow cell culture): remained constant
- number of apoptotic cells (TUNEL) ([4]; UBP43−/− bone marrow cells): significant increase
